For orientation: pIC50 means the negative decadic logarithm of the IC50, by convention in mol/L. Read a high pIC50 as a small IC50.

Sequences of proteins named here, by UniProt entry; tags and fusion partners are left off. Residues count along the entry.
UniProt O00763, 129-2458 limits assumed: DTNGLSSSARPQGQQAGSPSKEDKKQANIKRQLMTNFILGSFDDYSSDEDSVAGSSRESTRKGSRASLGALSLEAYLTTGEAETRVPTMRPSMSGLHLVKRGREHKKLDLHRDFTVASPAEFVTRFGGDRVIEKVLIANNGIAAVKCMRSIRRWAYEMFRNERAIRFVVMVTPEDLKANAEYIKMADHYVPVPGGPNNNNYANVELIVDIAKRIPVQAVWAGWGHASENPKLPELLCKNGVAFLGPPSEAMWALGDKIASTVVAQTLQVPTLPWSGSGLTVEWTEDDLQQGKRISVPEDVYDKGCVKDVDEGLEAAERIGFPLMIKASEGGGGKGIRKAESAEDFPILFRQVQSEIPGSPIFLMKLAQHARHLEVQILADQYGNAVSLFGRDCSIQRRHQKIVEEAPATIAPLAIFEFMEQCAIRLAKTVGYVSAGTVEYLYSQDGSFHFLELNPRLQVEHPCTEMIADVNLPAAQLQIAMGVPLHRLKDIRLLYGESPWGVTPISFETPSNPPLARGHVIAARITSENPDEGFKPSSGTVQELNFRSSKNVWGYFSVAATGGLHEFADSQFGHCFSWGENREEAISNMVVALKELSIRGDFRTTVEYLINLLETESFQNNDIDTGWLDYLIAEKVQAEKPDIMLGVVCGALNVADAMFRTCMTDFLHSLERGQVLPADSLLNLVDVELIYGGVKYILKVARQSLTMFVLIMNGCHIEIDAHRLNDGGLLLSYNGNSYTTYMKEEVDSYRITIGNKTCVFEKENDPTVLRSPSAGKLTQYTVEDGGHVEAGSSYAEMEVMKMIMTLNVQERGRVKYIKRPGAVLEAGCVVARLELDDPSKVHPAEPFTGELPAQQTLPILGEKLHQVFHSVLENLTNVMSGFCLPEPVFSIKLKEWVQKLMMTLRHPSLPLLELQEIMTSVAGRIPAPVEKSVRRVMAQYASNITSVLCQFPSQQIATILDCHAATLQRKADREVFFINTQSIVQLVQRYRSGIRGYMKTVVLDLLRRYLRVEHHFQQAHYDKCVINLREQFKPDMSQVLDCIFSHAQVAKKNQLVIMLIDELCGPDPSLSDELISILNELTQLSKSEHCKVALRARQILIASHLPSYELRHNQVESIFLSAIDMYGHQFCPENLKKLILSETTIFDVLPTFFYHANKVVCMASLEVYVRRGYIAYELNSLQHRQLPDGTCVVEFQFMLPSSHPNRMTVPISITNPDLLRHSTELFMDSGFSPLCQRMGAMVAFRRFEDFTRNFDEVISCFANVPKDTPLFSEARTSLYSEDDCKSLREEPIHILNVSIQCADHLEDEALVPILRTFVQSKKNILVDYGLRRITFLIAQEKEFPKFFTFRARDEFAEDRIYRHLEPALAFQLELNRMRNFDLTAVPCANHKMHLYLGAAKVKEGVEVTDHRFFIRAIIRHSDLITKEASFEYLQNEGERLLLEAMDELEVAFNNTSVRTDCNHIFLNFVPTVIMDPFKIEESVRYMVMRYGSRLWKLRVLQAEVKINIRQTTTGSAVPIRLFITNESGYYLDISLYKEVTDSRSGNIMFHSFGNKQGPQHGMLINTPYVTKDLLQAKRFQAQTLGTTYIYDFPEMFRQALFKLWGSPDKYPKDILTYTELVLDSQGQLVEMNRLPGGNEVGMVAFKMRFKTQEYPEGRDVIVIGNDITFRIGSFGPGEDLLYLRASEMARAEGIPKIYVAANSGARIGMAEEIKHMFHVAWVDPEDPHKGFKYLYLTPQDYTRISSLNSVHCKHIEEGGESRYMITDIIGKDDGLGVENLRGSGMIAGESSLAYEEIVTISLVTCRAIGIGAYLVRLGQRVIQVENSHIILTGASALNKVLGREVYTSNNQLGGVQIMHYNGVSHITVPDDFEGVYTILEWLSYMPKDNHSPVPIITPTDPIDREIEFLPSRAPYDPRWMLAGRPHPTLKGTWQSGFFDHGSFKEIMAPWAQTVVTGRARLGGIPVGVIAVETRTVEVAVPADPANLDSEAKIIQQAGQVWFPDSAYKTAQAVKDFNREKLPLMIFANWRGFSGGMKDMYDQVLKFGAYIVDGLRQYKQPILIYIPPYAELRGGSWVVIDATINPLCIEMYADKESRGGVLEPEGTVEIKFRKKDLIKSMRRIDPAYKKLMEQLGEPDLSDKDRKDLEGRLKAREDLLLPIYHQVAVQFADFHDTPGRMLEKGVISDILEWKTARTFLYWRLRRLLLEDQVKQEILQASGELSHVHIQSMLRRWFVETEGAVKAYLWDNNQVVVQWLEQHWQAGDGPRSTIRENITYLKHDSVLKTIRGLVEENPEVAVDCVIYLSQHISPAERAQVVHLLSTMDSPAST

From US8765959B2, “Piperidine derivatives” (Boehringer Ingelheim International GmbH, priority 2011, dated 2014) come the findings set out here.

pIC50: −log10 of the molar value.

The assay has as its target human ACC2 (Homo sapiens, UniProt O00763). In words: ACC2 assay, spectrophotometric 384 well assay (NADH-linked, coupled lactate dehydrogenase/pyruvate kinase). It counts as biochemical. To be noted: human ACC2 construct lacking 128 N-terminal amino acids, 25° C., 340 nm, 15 minutes. As for the experimental part: Spectrophotometric 384 Well Assay
Malonyl CoA formation by acetyl CoA carboxylases is stoichometrically linked to the consumption of ATP. ACC2 activity is measured in a NADH-linked kinetic method measuring ADP generated during the ACC reaction using a coupled lactate dehydrogenase/pyruvate kinase reaction.
For biological testing, a human ACC2 construct which lacks the 128 amino acids at the N-terminus for increased solubility (nt 385-6966 in Genbank entry AJ575592) is cloned. The protein is then expressed in insect cells using a baculoviral expression system. Protein purification is performed by anion exchange.
All compounds are dissolved in dimethyl sulfoxide (DMSO) to a concentration of 10 mM.
Assay reactions are then carried out in 384-well plates, with hACC2 in an appropriate dilution and at final assay concentrations (f.c.) of 100 mM Tris (pH 7.5), 10 mM trisodium citrate, 25 mM KHCO3, 10 mM MgCl2, 0.5 mg/ml BSA, 3.75 mM reduced L-glutathione, 15 U/ml lactate dehydrogenase, 0.5 mM phosphoenolpyruvate, 15 U/ml pyruvate kinase, compounds at different concentrations at final DMSO concentrations of 1%.
The enzymatic reaction is then started by addition of a mixture of NADH, acetyl Coenzyme A (both 200 μM f.c.) and ATP (500 uM f.c.). The decrease of the optical density (slope S) is then determined at 25° C. at a wavelength of 340 nm over 15 minutes in a spectrophotometric reader.
Each assay microtiter plate contains wells with vehicle instead of compound as controls for the non-inhibited enzyme (100% CTL; ‘HIGH’) and wells without acetyl-CoA as controls for non-specific NADH degradation (0% CTL; ‘LOW’).
The slope S is used for calculation of % CTL=(S(compound)−S(‘LOW’))/(S(‘HIGH’)−S(‘LOW’))*100. Compounds will give values between 100% CTL (no inhibition) and 0% CTL (complete inhibition).
For IC50 value determination, the sample slope in the presence of the test compound after subtraction of the low controls (S(compound)−S(‘LOW’)) are used.
An IC50 value is derived from the compound slopes at different dosages after subtraction of the low controls (S(compound)−S(‘LOW’)) by non-linear regression curve fitting (equation y=(A+((B−A)/(1+((C/x)^D))))).
With `CCCOc1ccc(C2CCN(c3ccc(C(C)NC(C)=O)cc3F)CC2)c(C)c1` (stereo not drawn), the negative logarithm of the IC50 (pIC50) is 7.22.

Compound `CC(=O)N[C@@H](C)c1ccc(N2CCC(c3ccc(OC(C)C)cc3)CC2)cc1` gave a negative logarithm of the IC50 (pIC50) of 6.77.

Compound `CC(=O)N[C@@H](C)c1ccc(N2CCC(c3ccc(OCC4CC4)cc3F)CC2)cc1` gave a pIC50 of 6.89.

In turn, `CC(=O)N[C@@H](C)c1ccc(N2CCC(c3ccc(OCC4CC4)cc3)CC2)cc1` had a negative logarithm of the IC50 (pIC50) of 6.59.

`CCCOc1ccc(C2CCN(c3ccc(C(C)NC(C)=O)c(F)c3)CC2)cc1` (stereo not drawn): the pIC50 is 6.62.

Compound `CC(=O)NC(C)c1ccc(N2CCC(c3ccc(OC4CCC4)cc3)CC2)cc1F` (stereo not drawn) gave a pIC50 of 6.80.
